## Antibody variant affinities, Ab-14 heavy chain, assay 1

Source: Engelhart et al. 2022 (doi:10.1038/s41597-022-01779-4), MIT Lincoln Laboratory and A-Alpha Bio; data file from the FLAb repository.

All variants were tested on one target, the spike HR2 peptide PDVDLGDISGINAS (SARS-CoV-2).

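Phage display of a naive human antibody library on the peptide gave the parent. AAYL49 was designed without a model: most single CDR substitutions and a random sample of double and triple ones. The assay is AlphaSeq: two haploid yeast populations carry antibody and antigen on their surface. Binding brings cells together so that they mate, and sequencing counts the barcode pairs among the diploids. A regression on co-assayed BCL2-family reference pairs converts the normalised counts of each replicate to an apparent Kd. Mating was done three times.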

Parent: Ab-14, a human scFv built as VH, a 15-residue (Gly4Ser)3 linker, VL. Only the CDRs of the heavy chain vary.
VH: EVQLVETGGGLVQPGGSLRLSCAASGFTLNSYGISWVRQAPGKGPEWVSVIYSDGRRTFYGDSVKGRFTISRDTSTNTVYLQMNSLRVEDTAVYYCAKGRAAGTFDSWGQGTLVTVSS
VL: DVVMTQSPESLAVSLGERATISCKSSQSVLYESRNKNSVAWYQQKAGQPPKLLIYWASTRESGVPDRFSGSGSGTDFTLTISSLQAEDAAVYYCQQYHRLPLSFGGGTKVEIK

Sequences are complete VH domains. Numbers give log10(Kd / nM), so 0 is 1 nM and 3 is 1 µM. Smaller is tighter. Replicates are averaged; those with no signal do not enter the mean. "nd" marks a missing value. The strain was present, yet no cells mated with the target were sequenced in any replicate, which points to weak or no binding. Empty control strains, which show no peptide, gave a signal in 15% of pairings with library AAYL49; the median was 4.06 and 95% of these signals were weaker than 2.83. No background was subtracted. Also given: how often the same scFv was detected with the empty control strains.

Result 6.07 (2 of 3 replicates; controls 3 of 9), variant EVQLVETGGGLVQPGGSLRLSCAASGFTLNSYCISWVRQAPGKGPEWVSVIYSDGRRTFFGDSVKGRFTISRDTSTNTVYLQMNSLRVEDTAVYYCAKGRAAGTFDIWGQGTLVTVSS.
Result nd (0 of 3 replicates; controls 0 of 9), variant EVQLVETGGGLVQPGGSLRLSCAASGFTNNSYGINWVRQAPGKGPEWVSEIYSDGRRTFYGDSVKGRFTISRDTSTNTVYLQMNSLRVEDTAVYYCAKGRAAGTFDSWGQGTLVTVSS.
Result nd (0 of 3 replicates; controls 0 of 9), variant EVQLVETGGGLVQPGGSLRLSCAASGFTLNSYGISWVRQAPGKGPEWVSVSMSDGRRTFYGDSVFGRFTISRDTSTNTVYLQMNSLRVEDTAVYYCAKGRAAGTFDSWGQGTLVTVSS.
Result nd (0 of 3 replicates; controls 0 of 9), variant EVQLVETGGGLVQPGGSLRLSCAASGFTLNSPGISWVRQAPGKGPEWVSVIYNDGRRTFYGDSVKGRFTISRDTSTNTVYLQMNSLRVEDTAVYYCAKGRAAGTFDSWGQGTLVTVSS.
Result 4.26 (2 of 3 replicates; controls 3 of 9), variant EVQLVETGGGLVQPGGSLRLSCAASGFTLNSYRISWVRQAPGKGPEWVSVIYSDGRRTFYQDSTKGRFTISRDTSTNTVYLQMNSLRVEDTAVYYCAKGRAAGTFDSWGQGTLVTVSS.
Result nd (0 of 3 replicates; controls 2 of 9), variant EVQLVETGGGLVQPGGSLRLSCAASGFTLNSYGISWVRQAPGKGPEWVSVIYSDGRRTFYGDSVKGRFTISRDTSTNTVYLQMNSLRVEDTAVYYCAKGRAAGTLDQWGQGTLVTVSS.
Result nd (0 of 3 replicates; controls 5 of 9), variant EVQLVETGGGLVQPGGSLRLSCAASGFTLNSYGESWVRQAPGKGPEWVSVIYSDGRRTFYGDSVKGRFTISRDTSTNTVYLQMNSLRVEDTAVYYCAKPRAAGTFYSWGQGTLVTVSS.
Result 2.26 (3 of 3 replicates; controls 1 of 9), variant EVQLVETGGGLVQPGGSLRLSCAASGFTLSSYGISWVRQAPGKGPEWVSVIYSDGTRTFYGDSVKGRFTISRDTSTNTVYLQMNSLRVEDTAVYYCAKGRQAGTFDSWGQGTLVTVSS.
Result 4.31 (1 of 3 replicates; controls 2 of 9), variant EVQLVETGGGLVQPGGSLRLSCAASGCTLNSYGISWVRQAPGKGPEWVSVIYSDGRRTFYGDWVKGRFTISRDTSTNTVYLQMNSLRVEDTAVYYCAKGRAAGYFDSWGQGTLVTVSS.
Result nd (0 of 3 replicates; controls 2 of 9), variant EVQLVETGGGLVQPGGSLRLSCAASGDTLNSYGISWVRQAPGKGPEWVSVEYSDGRRHFYGDSVKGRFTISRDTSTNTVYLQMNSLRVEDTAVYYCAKGRAAGTFDSWGQGTLVTVSS.
Result nd (0 of 3 replicates; controls 0 of 9), variant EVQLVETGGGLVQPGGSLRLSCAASGFTLNSYGISWVRQAPGKGPEWVSVIYSDGRRDFYGDWVKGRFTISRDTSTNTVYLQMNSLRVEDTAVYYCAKARAAGTFDSWGQGTLVTVSS.
Result 4.85 (1 of 3 replicates; controls 0 of 9), variant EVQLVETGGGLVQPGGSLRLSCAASGKTLNSYGISWVRQAPGKGPEWVSVIYSRGRRTFYGDSVKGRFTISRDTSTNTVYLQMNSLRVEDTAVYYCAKDRAAGTFDSWGQGTLVTVSS.
Result 4.14 (2 of 3 replicates; controls 4 of 9), variant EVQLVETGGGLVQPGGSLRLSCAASGFTLNSRGINWVRQAPGKGPEWVSVFYSDGRRTFYGDSVKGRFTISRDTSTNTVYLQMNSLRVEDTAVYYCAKGRAAGTFDSWGQGTLVTVSS.
Result 3.44 (3 of 3 replicates; controls 1 of 9), variant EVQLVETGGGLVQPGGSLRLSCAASGFTLNSYGISWVRQAPGKGPEWVSVIYTDGRRTFYGDRVKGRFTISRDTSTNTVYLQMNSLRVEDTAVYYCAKGRAAWTFDSWGQGTLVTVSS.
Result nd (0 of 3 replicates; controls 0 of 9), variant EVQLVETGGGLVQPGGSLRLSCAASDFTLNSYGISWVRQAPGKGPEWVSVIYSNGRRTFYGDSVKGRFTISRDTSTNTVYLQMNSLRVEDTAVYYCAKPRAAGTFDSWGQGTLVTVSS.
Result 3.31 (3 of 3 replicates; controls 1 of 9), variant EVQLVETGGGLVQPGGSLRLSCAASGFTLNSYGISWVRQAPGKGPEWVSVIYSDGRRTYYMDSVKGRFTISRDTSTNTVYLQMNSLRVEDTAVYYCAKGRAAGTFDKWGQGTLVTVSS.
Result 5.22 (1 of 3 replicates; controls 0 of 9), variant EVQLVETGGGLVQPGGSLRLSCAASDFTLNSYGISWVRQAPGKGPEWVSGIYSDGRRHFYGDSVKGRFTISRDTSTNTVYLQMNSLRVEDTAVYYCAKGRAAGTFDSWGQGTLVTVSS.
Result 4.13 (3 of 3 replicates; controls 3 of 9), variant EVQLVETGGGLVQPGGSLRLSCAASGFTLNSYGISWVRQAPGKGPEWVSVIYSSGRRTFYGDKVKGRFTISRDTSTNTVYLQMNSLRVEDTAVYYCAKGRAAGTFDSWGQGTLVTVSS.
Result nd (0 of 3 replicates; controls 0 of 9), variant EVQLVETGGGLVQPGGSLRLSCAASGFTTNSYGISWVRQAPGKGPEWVSVIYSDGRRTFYMDSVKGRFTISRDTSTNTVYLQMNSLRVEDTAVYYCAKGRAAGTFDSWGQGTLVTVSS.
Result 2.73 (3 of 3 replicates; controls 1 of 9), variant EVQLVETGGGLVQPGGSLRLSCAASGFTLNSYGYSWVRQAPGKGPEWVSVIYSDGRRTFYDDSVKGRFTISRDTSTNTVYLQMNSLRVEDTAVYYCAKGRAAGDFDSWGQGTLVTVSS.
Result 4.38 (1 of 3 replicates; controls 0 of 9), variant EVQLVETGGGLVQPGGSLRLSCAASNFTLNSYGISWVRQAPGKGPEWVSIIYSDGRRTFYGDSFKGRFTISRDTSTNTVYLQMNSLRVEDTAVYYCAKGRAAGTFDSWGQGTLVTVSS.
Result nd (0 of 3 replicates; controls 0 of 9), variant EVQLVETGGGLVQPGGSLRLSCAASGFTLNSYTISWVRQAPGKGPEWVSVIYSDGRRTFYGDMVKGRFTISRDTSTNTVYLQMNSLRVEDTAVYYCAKGRAAGTQDSWGQGTLVTVSS.
Result nd (0 of 3 replicates; controls 4 of 9), variant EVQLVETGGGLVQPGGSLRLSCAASGFSLNSYIISWVRQAPGKGPEWVSVIYSPGRRTFYGDSVKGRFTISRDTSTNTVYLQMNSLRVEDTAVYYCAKGRAAGTFDSWGQGTLVTVSS.
Result 3.56 (1 of 3 replicates; controls 0 of 9), variant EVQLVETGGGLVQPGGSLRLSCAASGFTLNDYGISWVRQAPGKGPEWVSVIYSDGRRHFYGDSRKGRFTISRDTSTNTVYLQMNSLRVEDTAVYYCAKGRAAGTFDSWGQGTLVTVSS.
Result nd (0 of 3 replicates; controls 0 of 9), variant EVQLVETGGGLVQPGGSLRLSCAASGHTLNSHGISWVRQAPGKGPEWVSVIYSMGRRTFYGDSVKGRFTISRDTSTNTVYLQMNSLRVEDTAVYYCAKGRAAGTFDSWGQGTLVTVSS.